Laboratory results reported in US6596863B2, “Medical composition containing nitroetheneamine Derivative or salt there of as active constituent” (Ishihara Sangyo Kaisha, Ltd., priority 1998, dated 2003).

Amino acid sequences for entries named in this document (tags omitted). Residues count along the entry.
UniProt P14780, 107-707 limits assumed: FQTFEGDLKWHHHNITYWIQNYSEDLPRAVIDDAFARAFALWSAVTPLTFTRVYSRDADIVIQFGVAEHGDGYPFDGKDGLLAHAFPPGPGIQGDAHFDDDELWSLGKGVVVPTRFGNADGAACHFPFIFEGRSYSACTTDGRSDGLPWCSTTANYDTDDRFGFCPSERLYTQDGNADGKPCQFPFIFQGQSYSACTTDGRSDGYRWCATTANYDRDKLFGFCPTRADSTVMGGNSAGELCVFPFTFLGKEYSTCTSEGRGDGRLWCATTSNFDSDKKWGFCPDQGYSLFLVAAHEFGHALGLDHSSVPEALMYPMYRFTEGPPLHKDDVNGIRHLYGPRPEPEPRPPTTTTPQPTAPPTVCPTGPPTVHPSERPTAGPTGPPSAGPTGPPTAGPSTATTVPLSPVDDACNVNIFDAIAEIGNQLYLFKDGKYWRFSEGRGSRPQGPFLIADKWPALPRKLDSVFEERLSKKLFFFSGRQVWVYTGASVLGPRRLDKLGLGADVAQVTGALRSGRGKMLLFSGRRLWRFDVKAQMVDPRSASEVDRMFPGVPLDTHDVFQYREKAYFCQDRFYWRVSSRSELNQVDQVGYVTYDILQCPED

Target: human MMP-9 (gelatinase B) (Homo sapiens, UniProt P14780)
Assay: Inhibition activity against human MMP-9 (gelatinase B), fluorescent peptide substrate
Conditions: compounds of the formula (I)
Description: Human MMP-9 (gelatinase B) was purified by the following method from a culture supernatant of HT1080 cells (human fibrosarcoma).
2.5×10^6 HT1080 cells (ATCC CCL-121, purchased from Dainippon Seiyaku) were inoculated to a tissue culture dish (Code No. 3020-100, manufactured by Iwaki Glass Co., Ltd.) having a diameter of 10 cm and containing 10 ml of Dulbecco's Modified Eagle Medium (DME, No. D-5648, manufactured by Sigma Co.) containing 10% fetal bovine serum (FBS: REHATUIN™, Code No. 1020-90, manufactured by Intergen Co.) and cultured for 72 hours at 37° C. in an atmosphere comprising 5% of CO2 and 95% of air (Carbon Dioxide Incubator LNA-122D Model, manufactured by Tabai Co.). Then, the medium was changed to 10 ml of a DME culture medium containing no FBS, and phorbol 12-myristate 13-acetate (PMA, code No. 163-114851, manufactured by Wako Pure Chemical Industries, Ltd.) was added so that the final concentration became 10 ng/ml. Under the same conditions, the culturing was carried out for further 20 hours, whereupon the culture supernatant was collected and subjected to cool centrifugation at 4° C. for 5 minutes (cool centrifugal separator, manufactured by Hitachi) to remove cell fragments.
The pH of a conditioned medium (50 ml) containing MMP-9, thus prepared, was adjusted to 8.0 with 0.2N NaOH. […] Namely, the above-mentioned conditioned medium was passed through DEAE-Sephacel (manufactured by Pharmacia, gel volume: about 35 ml) preliminarily equilibrated with 50 mM Tris-HCl, pH 8.0 (A buffer), and a non-adsorption fraction was collected. Then, it was added to Dye Matrix Gel Green A (manufactured by Amicon Co., gel volume: about 6 ml) preliminarily equilibrated with 50 mM Tris-HCl, pH 7.5/10 MM CaCl2/0.05% Brij 35/0.02% NaN3 (B buffer) and thoroughly washed with the same buffer, whereupon the adsorbed enzyme was eluted with a 1M NaCl-containing B buffer. About 7.5 ml of the eluted fraction was diluted twice with the B buffer and added to Gelatin-Sepharose 4B (manufactured by Pharmacia, gel volume: about 6 ml) preliminarily equilibrated with a 0.5 M NaCl-containing B buffer. It was thoroughly washed with a 0.5M NaCl-containing B buffer, and eluted with the B buffer containing 10% of dimethylsulfoxide (DMSO) and 0.5 M of NaCl. 5.5 ml of the eluted fraction was dialyzed against a 0.1 M NaCl-containing B buffer to obtain 5.2 ml of a purified enzyme solution. The purified MMP-9 standard product was confirmed to have a single band of 92 kDa by a protein staining by SDS electrophoresis, and further, it was confirmed to have an adequate gelatin decomposing activity by gelatinzymography (carried out in accordance with a method by Howard E. W. et al; Journal Biological Chemistry, Vol. 266, 13064-13069, 1991) and to have an adequate substrate decomposing activity by the after-mentioned measurement employing a fluorescent peptide substrate specific to MMP.
The inhibition activity against human MMP-9 was measured by the following method in accordance with the method by C. G. Knight et al (FEBS Letters, Vol, 296, 263-266, 1992) employing a fluorescent peptide substrate (7-methoxycoumarin-4-yl)Acetyl-Pro-Leu-Gly-Leu-(3-[2,4-dinitrophenyl]—Ala—Arg-NH2, Code 3163-VC, manufactured by Peptide Institute, Inc.
Further, as the case requires, commercially available human MMP-9 purified enzyme (No. YU-18003, manufactured by Kabushiki Kaisha Yagai Chuo Kenkyusho; used in a final concentration of from 0.0125 to 0.025 unit/ml, No. CC079, manufactured by Chemicon International, Inc.; used in a final concentration of 0.2 μg/ml) was used for the tests. […]

| SMILES | IC50 (read-out: MMP-9 inhibition activities IC50, 1st, 1st measurement) [µM] | IC50 (read-out: MMP-9 inhibition activities IC50, 2nd, 2nd measurement) [µM] | IC50 (read-out: MMP-9 inhibition activities IC50, Average, average of 1st and 2nd (or single measurement)) [µM] | IC50 (read-out: MMP-9 inhibition activities IC50, 1st, 1st measurement, tested form: HCl) [µM] | IC50 (read-out: MMP-9 inhibition activities IC50, 2nd, 2nd measurement, tested form: HCl) [µM] | IC50 (read-out: MMP-9 inhibition activities IC50, Average, average of 1st and 2nd (or single measurement), tested form: HCl) [µM] |
| --- | --- | --- | --- | --- | --- | --- |
| CCOC(=O)c1cnn(NNC(=C[N+](=O)[O-])Nc2ccccc2)c1N | 35.8 | 16.9 | 26.4 | – | – | – |
| CN(C)CCNC(=C[N+](=O)[O-])NNc1cc(C(F)(F)F)cc(Cl)n1 | – | – | – | 7.4 | 4.4 | 5.9 |

Read-outs that look alike come from different tables or passages of the source.
